# Experimental data published in paper PMC12279946 (Nature Communications, 2024).
# B1: SprT-BR (SPRTN aa28-245), minimal active SPRTN variant lacking MIU and UBZ (domain or fragment, human, UniProt Q9H040 28-245, looked up)
# chain: SLSLVDASWELVDPTPDLQALFVQFNDQFFWGQLEAVEVKWSVRMTLCAGICSYEGKGGMCSIRLSEPLLKLRPRKDLVETLLHEMIHAYLFVTNNDKDREGHGPEFCKHMHRINSLTGANITVYHTFHDEVDEYRRHWWRCNGPCQHRPPYYGYVKRATNREPSAHDYWWAEHQKTCGGTYIKIKEPENYSKKGKGKAKLGKEPVLAAENKDKPNRG
# notes: Uniformly 15N-labelled in the NMR experiments, unlabelled in the cleavage assays; Tag cut off with Strep-tagged TEV protease; also called 15N-SprT-BR; source: E. coli BL21 (DE3), purified (Strep-Tactin, heparin, TEV cleavage, SEC); expressed in 15N-containing media for NMR
# Molecular target: T1, mono-ubiquitin (Ub^1) (UniProt P0CG48 1-76)
# T1 construct: mono-ubiquitin, the 76-residue mature ubiquitin; plasmid provided by Brenda Schulman; His6 tag removed with GST-tagged 3C protease; source: E. coli Rosetta, purified (Ni-NTA, 3C cleavage, reverse Ni-NTA, SEC); not shown: His6, N-terminal, cleaved
# Experiment: NMR titration; 2D 1H,15N-HSQC of 100 µM 15N-labelled SPRTN construct alone or with 500 µM Ub^1 (5x molar excess), no DNA; 20 mM HEPES/KOH pH 7.2, 150 mM KCl, 10% D2O, 308 K, 600 MHz
# Conditions: both partners purified
binder,measurement,value
B1,binding result,binds
